In PubChem BioAssay AID651787 (The Scripps Research Institute Molecular Screening Center, 2012):
This is a selection; strong and weak results do not stand in their true shares. Active and inactive are the calls of the source.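 The calls were made as follows: active = activation above the run cutoff, the mean activation over all tested wells plus 3 SD (cut at about 12% in these data); inactive = the rest.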

Assay: calcium rise in parental Ga16 cells – cell-based, fluorescence, CHO-Ga16 parental line, counter-screen for hTAAR1 agonist project (AID 651787)
Settings: Fluo-8 calcium fluorescence, at 3 µM, stronger effect = higher value, normalized to maximal ATP response, DMSO zero
Summary of the method: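 System: Gα16-overexpressing parental CHO cells; Quantity: 750 cells/well; Signal: Fluo-8 calcium-dye fluorescence; Benchmarks: DMSO (0%) and EC100 ATP (100%); Evaluation: percent activation from max/basal fluorescence ratio; Schedule: Fluo-8 loading 75 min 37 °C, then 30 min room temperature; Dosing: 3 µM compound, single concentration.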

Row | SMILES | activation
1 | CP(=O)(OC12CC3CC(CC(C3)C1)C2)OC12CC3CC(CC(C3)C1)C2 | active: 14.7%
